# Measured affinities in a library of Ab-14 light chain variants

The target is the same throughout: PDVDLGDISGINAS, from the HR2 region of SARS-CoV-2 spike.

The variants keep the heavy chain, the linker and the frameworks of Ab-14 (scFv order VH, the linker GGGGSGGGGSGGGGS, VL).
VH: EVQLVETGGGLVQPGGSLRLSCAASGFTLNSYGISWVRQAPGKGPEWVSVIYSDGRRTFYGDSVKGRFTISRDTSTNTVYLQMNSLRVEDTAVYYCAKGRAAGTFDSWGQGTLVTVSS
VL: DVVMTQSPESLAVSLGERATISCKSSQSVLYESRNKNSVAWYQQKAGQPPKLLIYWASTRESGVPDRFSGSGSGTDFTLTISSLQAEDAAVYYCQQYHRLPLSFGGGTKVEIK

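Phage display of a naive human antibody library on the peptide gave the parent. This is the validation round: designs drawn from the data on random variants, tested in the same kind of assay. Group labels follow the data file (Ctrl: baseline library sampled from a position-specific scoring matrix, with some repeated check sequences; En: ensemble of fine-tuned language models; GP: Gaussian process model; HC: hill climbing; Gen: genetic algorithm; Gibbs: Gibbs sampling; a sequence that several methods proposed may carry one label only). Affinity was read by AlphaSeq, a pooled yeast mating assay with surface-displayed partners. After mating in shaken culture at 30 °C for 16 h, diploids were selected and their barcode pairs sequenced. A regression on co-assayed BCL2-family reference pairs converts the normalised counts of each replicate to an apparent Kd. The assay was run in six technical replicates.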

The parent's light chain CDRs are KSSQSVLYESRNKNSVA, WASTRES, QQYHRLPLS; each variant's own CDRs replace them letter for letter.
Kd is apparent (estimated from mating counts) and averaged on the log scale over replicates with a signal. Smaller is tighter.
An entry "nd" has no value in the source: the pair was not observed among the diploids in any replicate. This suggests poor binding but is not conclusive.

Variant KLSQSVLYESRNTNNVA, NASTRES, QQYHRLPLS [GP_Gen] showed 540 pM (6 of 6 replicates; controls 0 of 18).
Variant HLSQSVQYESRNKNSVA, NASTRES, QQYHRLPLS [GP_Gen] showed 850 pM (6 of 6 replicates; controls 1 of 18).
Variant KVAQGIFDGKRHSHNIA, EVSHLCD, QQYSRLPLE [En_Gibbs] showed 16 nM (6 of 6 replicates; controls 0 of 18).
Variant KLEQSYLYESRNKNSVA, NASQRES, QQYHRLPLS [GP_Gen] showed 1.1 nM (6 of 6 replicates; controls 2 of 18).
Variant SLEPFEQQIMKDLNNIA, NTQVRAT, QQYMRLPFM [En_Gibbs] showed 2.4 nM (6 of 6 replicates; controls 1 of 18).
Variant KSSQSVLYESRNKNSVA, WASTRES, QQYLRLPLS [Ctrl] showed 150 nM (5 of 6 replicates; controls 1 of 18).
Variant MMSMGFLGGMRAKNNVA, QEETRES, QQYHRLPLI [En_HC] showed 52 nM (4 of 6 replicates; controls 0 of 18).
Variant NITQQGDAMGDQRNNVA, NVETLEH, QQYAHLPLL [En_Gibbs] showed 64 nM (6 of 6 replicates; controls 0 of 18).
Variant KFSQSVLYESRNKNSVA, GASQRES, QQYHRLPLS [GP_Gen] showed 770 pM (6 of 6 replicates; controls 2 of 18).
Variant KLDQSQLYQSRNKQSVA, NASQRES, QQYHRLPLS [GP_Gibbs] showed 550 pM (6 of 6 replicates; controls 0 of 18).
Variant KLSQSDLYESRNSNSVA, EASTRES, QQYHRLPLS [GP_Gen] showed 460 pM (6 of 6 replicates; controls 1 of 18).
Variant KLKQLMHIESFNKNNVA, EMTTREK, QSYDRLPLS [En_HC] showed 4.5 nM (6 of 6 replicates; controls 0 of 18).
Variant MVYQATMMGTSTRNSIA, NAQMRPD, QQYHRLPLI [En_Gen] showed 8.8 nM (6 of 6 replicates; controls 1 of 18).
Variant DLTGMFNHAGQQQHSIA, NGGIKIE, QQYNRLPLA [En_Gibbs] showed 630 pM (6 of 6 replicates; controls 3 of 18).
Variant KSSQSVLYESRNSNSVA, SASTRES, QQYHRLPLF [Ctrl] showed 2.4 nM (6 of 6 replicates; controls 0 of 18).
Variant KMSQSAPMESRNWNSVA, NASTRES, QQYHRLPLS [GP_Gibbs] showed 1.5 nM (6 of 6 replicates; controls 0 of 18).
Variant KLFQSWLYEQRNPNSVA, NASKRLL, QQYHRLPLS [GP_Gibbs] showed 1.6 nM (6 of 6 replicates; controls 0 of 18).
Variant RIDDYENMLGKNKESIA, EAAVTLT, QQYARLPLS [En_Gibbs] showed 3.7 nM (6 of 6 replicates; controls 0 of 18).
Variant HVSPSVLYESRNKNSVA, NASTRES, QQYHRLPLS [GP_HC] showed 400 pM (6 of 6 replicates; controls 0 of 18).
Variant KTSQSLLYESRNKNSVA, WASTREN, QQYHRLSLS [Ctrl] showed nd (0 of 6 replicates; controls 0 of 18).
Variant KVSQQVLYESRNKNSVA, EASTRES, QQYHRLPLS [GP_Gen] showed 610 pM (6 of 6 replicates; controls 0 of 18).
Variant KLSQSVWYESRNKNSVA, NASTRLS, QQYHRLPLS [GP_Gen] showed 830 pM (6 of 6 replicates; controls 2 of 18).
Variant TLYMGMTEARDSKHAIA, DNNERDR, QQYHRLPLV [En_Gibbs] showed 15 nM (6 of 6 replicates; controls 1 of 18).
Variant KQSQEYLYESRNKNSVA, DASTRES, QQYHRLPLS [GP_HC] showed 1.7 nM (6 of 6 replicates; controls 0 of 18).
Variant KTSQAVLYESRNKNSVA, WASTRES, QQYHRLPLD [Ctrl] showed 280 nM (2 of 6 replicates; controls 0 of 18).
Variant HISDLIMVASRNRNSVA, DESTRPD, QQYHRLPLS [En_HC] showed 2.3 nM (6 of 6 replicates; controls 0 of 18).
Variant KLASVTGTEKVHGNNVA, EMEMREN, QQYNRLPLS [En_Gen] showed 2.1 nM (6 of 6 replicates; controls 0 of 18).
Variant KSSQSVLYESRNKNSVA, WASTREF, QQYNRLPLS [Ctrl] showed 110 nM (3 of 6 replicates; controls 0 of 18).
Variant KSSFSVKFESRNKNSVA, DASTRES, QQYHRLPLS [GP_HC] showed 3.8 nM (6 of 6 replicates; controls 0 of 18).
Variant MMSQVQGQGTRHRNNVA, QTSTREP, QQYDRLPLI [En_Gen] showed 96 nM (3 of 6 replicates; controls 0 of 18).
Variant TISGMVEEIETRQKNIA, EVEFRCM, QQYSRLPLS [En_Gibbs] showed nd (0 of 6 replicates; controls 0 of 18).
Variant KLVQFMNRGTHHTSNIA, DAQNRTD, QQYYRLPLA [En_Gen] showed 5.9 nM (6 of 6 replicates; controls 1 of 18).
Variant KLSQSVLYDSRNKNSVA, NASTRES, QQYHRLPLS [GP_HC] showed 300 pM (6 of 6 replicates; controls 0 of 18).
Variant VLSDTAGNQYDEADNIA, DKTETSV, QQYARLPLS [En_Gibbs] showed 9.1 nM (6 of 6 replicates; controls 1 of 18).

Repeated from above, the 4 best binders with a signal in all replicates:

KLSQSVLYDSRNKNSVA, NASTRES, QQYHRLPLS [GP_HC]: 300 pM (6 of 6 replicates; controls 0 of 18).
HVSPSVLYESRNKNSVA, NASTRES, QQYHRLPLS [GP_HC]: 400 pM (6 of 6 replicates; controls 0 of 18).
KLSQSDLYESRNSNSVA, EASTRES, QQYHRLPLS [GP_Gen]: 460 pM (6 of 6 replicates; controls 1 of 18).
KLSQSVLYESRNTNNVA, NASTRES, QQYHRLPLS [GP_Gen]: 540 pM (6 of 6 replicates; controls 0 of 18).

The parent sequence was in this pool as ten entries: three were never detected, three once, and four in most replicates, with averages from 2.2 nM to 240 nM.
A sequence measured in both rounds can read differently, since the two assays cover different ranges.
The authors averaged sequences with at least three values out of six and counted those with two or fewer as poor binders.
Background: pairings of all light chain designs with three empty control strains gave a value in 4% of cases (median 430 nM, 5th percentile 38 nM). Values in that range, when seen in few replicates, are hard to tell from nonspecific mating. The control count says in how many pairings with the empty strains this scFv gave a signal.

From the AlphaSeq antibody data of Li et al. 2023 (doi:10.1038/s41467-023-39022-2), copy in the FLAb collection.